Drawing on ChEMBL document CHEMBL4304759, “Identifying Novel Anti-Osteoporosis Leads with a Chemotype-Assembly Approach” (J Med Chem, 2019), this text covers Activity for one molecule.

The test system of the experiment is Rattus norvegicus. The experiment is described as follows: Anti-osteoporosis activity in ovariectomized Sprague-Dawley rat assessed as femur bone mineral density loss at 1 mg/kg/day, po for 3 months measured post-last dose by dual energy X-ray absorptiometry (RVb = 19%). The experiment is classed as functional.

As to `NCCCC(O)(P(=O)([O-])O)P(=O)(O)O.O.O.O.[Na+]`, the Activity was 3%.
